Source: patent publication US10189796B2, “[4-(1,3,3-trimethyl-2-oxo-3,4-dihydro-1H-quinoxalin-7-yl)phenoxy]ethyloxy compound or salt thereof” (SANTEN PHARMACEUTICAL CO., LTD., priority 2015, dated 2019)

Test system: IL-6 production in human corneal epithelium cell line (HCE-T)
Test: IL-6 production inhibitory action evaluation test (LPS stimulation, HTRF)
Type: cell-based
Settings: IL-6 production inhibition, 4 hours
Procedure: To evaluate the action of the present compounds as a GR agonist, IL-6 production inhibitory action in human corneal epithelial cell line after LPS stimulation was examined The IL-6 production was measured by using the HTRF method (Cat No. 62IL6PEB manufactured by Cisbio Bioassays, Inc.) according to the attached protocol. The specific method is described below.
LPS solution: After dissolving LPS in PBS(−), the resulting solution was diluted with a culture solution, whereby an LPS solution with a 1 μg/mL concentration was prepared.
After dissolving the test compound in dimethylsulfoxide, the solution was diluted with a 10% FBS-DMEM/Ham's F12 medium, whereby a 100 μM of the test compound solution was prepared. […] In addition, DEX was similarly dissolved, whereby a 100 μM concentration of the DEX solution was prepared, and an IL-6 production inhibitory ratio of DEX was measured, and used for calculation of Efficacy (% DEX).
Used cells: human corneal epithelium cell line (HCE-T) (RIKEN, Institute of Physical and Chemical Research) […]
FBS-DMEM/Ham's F12 medium was added. • 3) Test compound solution was added with each 10 μL/well. • 4) LPS solution was added with each 10 μL/well. • 5) The sample to which 1% dimethylsulfoxide-containing 10% FBS-DMEM/Ham's F12 medium was added with each 10 μL/well in place of each test compound solution, and 10% FBS-DMEM/Ham's F12 medium was added in place of the LPS solution was made a negative control. • 6) The sample in which 1% dimethylsulfoxide-containing 10% FBS-DMEM/Ham's F12 medium was added with each 10 μL/well in place of each test compound solution was made a positive control. • 7) After completion of 4 hours cultivation, the supernatant was recovered and the amount of IL-6 released in the supernatant was measured by using an HTRF human IL-6 Kit. • 8) The IL-6 production inhibitory ratio was calculated according to the following calculation formula. […]
The IL-6 production inhibitory ratio (%) was calculated by the following formula. […]
In addition, IC50 was calculated according to a conventional method. […]

`COc1cc(OC[C@H](C)O)ccc1-c1ccc2c(c1COc1cc(F)ccc1C)N(C)C(=O)C(C)(C)N2` [Compound 1-1, (S)-8-(5-fluoro-2-methylphenoxymethyl)-7-[4-(2-hydroxypropyl)oxy-2-methoxy-phenyl]-1,3,3-trimethyl-3,4-dihydro-1H-quinoxalin-2-one] showed an IC50 of 33 nM.
Compound `COc1cc(OC[C@@H](O)CCO)ccc1-c1ccc2c(c1COc1cc(F)ccc1C)N(C)C(=O)C(C)(C)N2` [Compound 2-1, (S)-7-[4-(2,4-dihydroxybutyl)oxy-2-methoxyphenyl]-8-(5-fluoro-2-methyl-phenoxymethyl)-1,3,3-trimethyl-3,4-dihydro-1H-quinoxalin-2-one] has an IC50 of 15 nM.
Work on `COc1ccc(CO)cc1-c1ccc2c(c1COc1cc(F)ccc1C)N(C)C(=O)C(C)(C)N2` [Control compound B, 8-(5-fluoro-2-methylphenoxymethyl)-7-(5-hydroxymethyl-2-methoxyphenyl)-1,3,3-trimethyl-3,4-dihydro-1H-quinoxalin-2-one, reference compound] yielded an IC50 of 123 nM.
